## Measured affinities in a library of Ab-14 light chain variants

From the AlphaSeq antibody data of Engelhart et al. 2022 (doi:10.1038/s41597-022-01779-4), copy in the FLAb collection.

All variants were tested on one target, the spike HR2 peptide PDVDLGDISGINAS (SARS-CoV-2).

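The starting antibody came from a phage panning campaign against this peptide. Variants in AAYL50 differ from the parent at up to three CDR positions; double and triple changes were sampled at random. AlphaSeq pools MATa yeast showing the antibodies with MATalpha yeast showing the peptide. The frequency of each diploid, read from paired DNA barcodes, reflects how well the two displayed proteins bind. Read counts were normalised to the haploid input and turned into Kd by a linear fit to BCL2-family pairs of known affinity, for each replicate. There are three technical replicates.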

Ab-14 is the parent antibody, in scFv form: VH, then three GGGGS repeats, then VL. The heavy chain is unchanged in all variants.
VH: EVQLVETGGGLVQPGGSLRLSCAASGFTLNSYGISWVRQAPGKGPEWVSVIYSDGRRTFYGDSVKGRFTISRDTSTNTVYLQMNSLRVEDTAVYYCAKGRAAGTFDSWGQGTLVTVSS
VL: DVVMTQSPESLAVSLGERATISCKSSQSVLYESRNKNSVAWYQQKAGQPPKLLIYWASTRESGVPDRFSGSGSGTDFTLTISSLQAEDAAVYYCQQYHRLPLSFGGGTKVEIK

Each variant is given by its three light chain CDRs, as the data file delimits them; those of the parent are KSSQSVLYESRNKNSVA, WASTRES, QQYHRLPLS.
Numbers give log10(Kd / nM), so 0 is 1 nM and 3 is 1 µM. Smaller is tighter.
The mean shown is taken over the replicates in which the pair was detected.
An entry "nd" has no value in the source: the pair was not observed among the diploids in that replicate. This suggests poor binding but is not conclusive.
Parent in this assay: reference entry 0.65, copy in this library 1.68.
Empty control strains, which show no peptide, gave a signal in 18% of pairings with library AAYL50; the median was 4.19 and 95% of these signals were weaker than 2.99. No background was subtracted. The control count says in how many pairings with the empty strains this scFv gave a signal, with their mean in brackets.

CDR-L1,CDR-L2,CDR-L3,"replicates, log10 nM","mean, log10 nM",control signals
KSSQSVLLESRNKNSVA,WASTKES,QQLHRLPLS,nd nd nd,nd,3 of 9 (3.57)
KSSQSVLYESRNKNSVA,WASTRES,QQDHRLPTL,nd nd nd,nd,0 of 9
KSSQSVLYESRNKTSVA,WASTRES,QQYHRLPLS,2.43 3.06 3.26,2.91,3 of 9 (4.85)
KSSQSVLYESRNKNSVQ,WASTWTS,QQYHRLPLS,nd nd nd,nd,0 of 9
KSSFSVLYESTDKNSVA,WASTRES,QQYHRLPLS,0.41 0.61 0.48,0.50,1 of 9 (5.92)
KSSQSVLYTSRNKNSVA,WFSTRES,QQYHRLPPS,nd 3.24 nd,3.24,1 of 9 (4.37)
KSSQSVLYESRNKNSVA,WASTRES,QPYIRYPLS,nd 3.67 4.85,4.26,3 of 9 (4.43)
KSSQSVLYESRNKNSVP,WASTRES,QVYHRLPLS,nd nd nd,nd,0 of 9
KMSQSVLYESRNKNSVA,WPSTRES,QQYSRLPLS,1.37 1.77 1.94,1.69,2 of 9 (3.76)
KSSQSVLYESKIRNSVA,WASTRES,QQYHRLPLS,0.90 0.95 0.89,0.91,0 of 9
KSSQSVLYESRNKNNVA,WASTRES,QQYHRYPLL,0.97 1.27 1.06,1.10,3 of 9 (4.98)
KSSQTVLYESRNKNSVA,WASTREG,QQTHRLPLS,nd nd 3.90,3.90,3 of 9 (3.47)
KSSQSVLYHSRNVDSVA,WASTRES,QQYHRLPLS,1.58 1.53 1.47,1.53,1 of 9 (3.50)
KPSQSVLYESRNKNEAA,WASTRES,QQYHRLPLS,nd nd 3.74,3.74,2 of 9 (3.91)
KSSQSVLYESRDKNSVA,WFSTRES,QQHHRLPLS,5.65 nd nd,5.65,3 of 9 (4.58)
KSSQSSLYESRNKNSVA,WASTRES,QQYHRLVLV,nd 3.45 3.46,3.45,1 of 9 (3.98)
KSSQSVLYESRNKNQVA,WASYRES,QQYHRLPLS,3.01 3.36 nd,3.19,3 of 9 (4.20)
KSSQSVTYESRNKASVA,WASTRES,QQLHRLPLS,1.01 1.24 0.91,1.05,4 of 9 (4.85)
KSSQSVLVESRNKNSVA,WASTRES,QQYHRYPYS,nd nd nd,nd,0 of 9
KSSQSVLYESRNKNSVF,WASTREH,QQYHTLPLS,nd nd nd,nd,0 of 9
KSSQSVLTESRNKNSVF,WASTRES,QQYHRLPLS,nd nd nd,nd,1 of 9 (4.39)
KSSQSVLYESRNKNSVA,WVSTRES,QQYHRLPLS,5.63 nd nd,5.63,0 of 9
KSSQSVLCGSRNKNSVA,WASTRES,QQYHRLPLA,1.61 1.59 2.07,1.75,2 of 9 (4.28)
KSSQSVLYEQQNKNSVA,WASTRES,QQYHRLPQS,nd nd nd,nd,1 of 9 (3.65)
KSSQSVLCESRNKNSVA,WASTEES,QQYHRRPLS,nd 3.26 nd,3.26,2 of 9 (4.14)
KSTQSVLYESRNKNSVA,WASTRES,QQYRRLPES,2.94 2.20 2.17,2.44,2 of 9 (4.32)
KSSQSVLHESRNKPSVA,WASTIES,QQYHRLPLS,5.54 nd nd,5.54,3 of 9 (4.79)
HSSQSVLYESWNKNSAA,WASTRES,QQYHRLPLS,3.24 4.19 3.98,3.80,4 of 9 (4.69)
ESSQSVLYESRNKNSVA,WASPRES,KQYHRLPLS,3.79 nd nd,3.79,1 of 9 (2.30)
KSLQSVLYESRNKNSVL,WASTRNS,QQYHRLPLS,nd 4.67 4.50,4.59,4 of 9 (4.03)
KSSQSVIYESRNKNSVA,WASARES,QQYHELPLS,nd nd nd,nd,0 of 9
KSSQSVPYESRNKNSVA,WAQTRES,QQYGRLPLS,1.22 1.40 1.36,1.33,4 of 9 (3.81)
RSYQSVLYESRNKNSVA,WASTRES,QQYHRLVLS,1.65 2.23 3.00,2.29,0 of 9
KSSQSVLYGSRNKNSVA,WASIRES,QMYHRLPLS,2.53 2.01 3.06,2.54,3 of 9 (3.07)

The first 5 entries again:

CDR-L1	CDR-L2	CDR-L3	replicates, log10 nM	mean, log10 nM	control signals
KSSQSVLLESRNKNSVA	WASTKES	QQLHRLPLS	nd nd nd	nd	3 of 9 (3.57)
KSSQSVLYESRNKNSVA	WASTRES	QQDHRLPTL	nd nd nd	nd	0 of 9
KSSQSVLYESRNKTSVA	WASTRES	QQYHRLPLS	2.43 3.06 3.26	2.91	3 of 9 (4.85)
KSSQSVLYESRNKNSVQ	WASTWTS	QQYHRLPLS	nd nd nd	nd	0 of 9
KSSFSVLYESTDKNSVA	WASTRES	QQYHRLPLS	0.41 0.61 0.48	0.50	1 of 9 (5.92)